The list shows a part of the results, in another mix than the full data. Some of these compounds have results that are not shown, active ones among them. Calls of active or inactive are those of the source. No stated cut-off is given here; in the data, active means activity change below about -30%; inactive means the rest, inconclusive results apart.
On the % scale 0 is the no-effect control and ±100 the full control effect.

This test in a line: qHTS Assay for Inhibitors of Fructose-1,6-bisphosphate Aldolase from Giardia Lamblia: Coupling assay counterscreen. To be noted: coupling enzyme system counterscreen, AmpLite Red fluorescence; at 58.2 µM (top of the series). The source says:
MLPCN Grant: MH085699-01 Assay Provider: Osnat Herzberg, University of Maryland NCGC Assay Overview: The objective of this project is to obtain compounds that inhibit Giardia lamblia growth. G. lamblia is a human pathogen which afflicts impoverished nations; it is the most common cause of outbreaks of diarrhea in the United States. During the course of our study of potential drug targets in Giardia, we have identified the Class II (Zn2+ functions in electrophilic catalysis) fructose-1,6-bisphosphate aldolase (FBPA) as an excellent candidate for drug targeting. FBPA is a key glycolytic pathway enzyme, essential for G. lamblia survival. The human FBPA belongs to the Class I aldolases, which have a different substrate binding site structure and a radically different catalytic mechanism (employing a lysine-Schiff base intermediate). Therefore, affinity-based or mechanism-based inhibitors of the Giardia FBPA are expected not to interfere with the catalytic function of the human FBPA. A glyceraldehyde-3-phosphate dehydrogenase/triose phosphate isomerase/NAD/arsenate coupled assay was adapted to the 1536-well HTP format for use in the primary screen. This was done by coupling it to a diaphorase/resazurin/resorufin reaction that can be monitored by fluorescence (excitation, 544 nm; emission, 590 nm). Compounds identified in this screen will be further evaluated by coupling the […]/triose phosphate isomerase/NADH assay to a phenazine methosulfate/tetranitroblue tetrazolium color reaction. False positives due to the dehydrogenases and diaphorase inhibition will be eliminated, and selectivity assay will triage inhibitors of mammalian triose phosphate isomerase and the Class I FBPA. G. lamblia FBPA inhibitors identified by the in vitro analyses will be examined for growth inhibition of Giardia trophozoites, and for cytotoxicity in human cells. This assay specifically addresses whether activity observed in the primary screen (AID 2451) is related to inhibition of the coupling assay used, as opposed to inhibition of aldolase. Actives in this assay are considered inconclusive for activity against aldolase.
NCGC Assay Protocol: Step,Parameter,Value,Description 1,Coupling enzyme reagent,2 uL,glyceraldehyde-3-phosphate 2,Compound,23 nL,3.68 nM-57.5 uM final concentration 3,Time,10 min,RT Incubation 4,Substrate/detection Reagent,2 uL,Substrate + enzyme coupling system + AmpLite Red kit 5,Time,20 min,RT Incubation 6,Detector,525 nm/598 nm (Fluorescence),ViewLux Fluorescence Read (Read 1) Notes: 1,Medium-binding black solid-bottom Kalypsys plates. FRD or Kalypsys dispenser. 2,Compound Library (10 mM ,1:5 dilution). Pin-transferred for a [final] range of 3.68 nM-57.5 uM. 3,RT incubation 4,FRD or Kalypsys dispenser, 2 uL of reaction mixture. Bottle kept at 4C and covered in foil to protect from light. 5,RT incubation 6,ViewLux Protocol 1194; Excitation filter wheel A (525/20 Pol; BODIPY TMR FP), Emission filter wheel B (598/25 S; BODIPY TMR FP S). Keywords: Fructose-bisphosphate aldolase, FBPA , Giardia lamblia , Giardia, HTS, Inhibitors
On the technique in general: qHTS replaces the single test concentration by a dilution series.
With `CN1[C@@H]2CC[C@H]1CC(OC(=O)C(O)(c1ccccc1)c1ccccc1)C2` (some centres undefined), the activity change, negative = inhibition was inactive: 2.08%.

Take `O=C(NCC1(N2CCCCC2)CCCCC1)c1cc([N+](=O)[O-])ccc1Cl`: the activity change, negative = inhibition was inactive: -0.979%.

Regarding `Cc1ccc(C(=O)NCC2(N3CCCCC3)CCCCC2)cc1`, the activity change, negative = inhibition was inactive: 0.931%.

`CC(C)N1C(=O)CC2(CCN(CCOC(=O)C(O)(c3ccccc3)c3ccccc3)CC2)C1=O`: the activity change, negative = inhibition is inactive: 1.3%.

For the compound `COc1cc(SC)ccc1C(=O)NCC1(N(C)C)CCCCC1`, the activity change, negative = inhibition is inactive: 1.64%.

Take `CCN(CC)CC(C)C(C)OC(=O)C(O)(c1ccccc1)c1ccccc1` (centres undefined): the activity change, negative = inhibition was inactive: -0.306%.

Take `CN(C)c1ccc(C(=O)NCC2(N(C)C)CCCCC2)cc1`: the activity change, negative = inhibition was inactive: 0.29%.

On to `CN(C)C1CCCC1OC(=O)C(O)(c1ccccc1)c1ccccc1` (centres undefined), for which the activity change, negative = inhibition is inactive: 1.73%.

Regarding `Cc1ccccc1C(=O)NCC1(N2CCCCC2)CCCCC1`, the activity change, negative = inhibition was inactive: 0.24%.

Consider `O=C(NCC1(N2CCCCC2)CCCCC1)c1cccc(Br)c1`, for which the activity change, negative = inhibition was inactive: 3.82%.

On to `CCN1CCCC(OC(=O)C2(O)c3ccccc3C=Cc3ccccc32)C1` (centres undefined), for which the activity change, negative = inhibition is inactive: -1.44%.

With `Cc1cc(C(=O)NCC2(N3CCCCC3)CCCCC2)ccc1[N+](=O)[O-]`, the activity change, negative = inhibition is inactive: 2.21%.

On to `COc1ccc(C(=O)NCC2(N(C)C)CCCCC2)cc1`, for which the activity change, negative = inhibition was inactive: 9.86%.

`O=C(NCC1(N2CCCCC2)CCCCC1)c1cc(F)c(F)cc1Cl`: the activity change, negative = inhibition is inactive: 6.28%.

For the compound `C=CCN1CCN(CCOC(=O)C(O)(c2ccccc2)c2ccccc2)CC1`, the activity change, negative = inhibition was inactive: 3.08%.

On to `COc1cc(C(=O)NCC2(N(C)C)CCCCC2)c([N+](=O)[O-])cc1OC`, for which the activity change, negative = inhibition was inactive: 0.137%.

On to `CN(C)C1(CNC(=O)c2ccc(Br)cc2)CCCCC1`, for which the activity change, negative = inhibition was inactive: 3.18%.

Consider `O=C(NCC1(N2CCCCC2)CCCCC1)c1cccc(Cl)c1`, for which the activity change, negative = inhibition is inactive: -0.427%.

With `COc1ccc(Cl)cc1C(=O)NCC1(N(C)C)CCCCC1`, the activity change, negative = inhibition is inactive: 0.258%.

As to `COc1cccc(C(=O)NCC2(N3CCCCC3)CCCCC2)c1`, the activity change, negative = inhibition is inactive: 0.613%.

In the case of `O=C(OC1CN2CCC1CC2)C(CO)(c1ccccc1)c1ccccc1` (centres undefined), the activity change, negative = inhibition was inactive: 4.72%.

As to `CN(C)c1cccc(C(=O)NCC2(N(C)C)CCCCC2)c1`, the activity change, negative = inhibition is inactive: -0.387%.

As to `CC(C)Oc1ccc(C(=O)NCC2(N(C)C)CCCCC2)cc1`, the activity change, negative = inhibition is inactive: 0.132%.

Consider `COc1ccc(Br)c(C(=O)NCC2(N3CCCCC3)CCCCC2)c1`, for which the activity change, negative = inhibition is inactive: -0.891%.

(Values after PubChem BioAssay AID2472 (National Center for Advancing Translational Sciences (NCATS), 2010).)
